The nature of the series: Histopathology of multiple tissues in mice dosed weekly IP. Conditions: 1 mpk and 10 mpk IP once weekly for 2 or 6 months, liver, kidney, heart, testes, adrenal gland, bone marrow, peripheral nerve, stomach, intestines.

SMILES strings stand for the structures.

On to `C/C1=C/C[C@@H](/C(C)=C/c2csc(C)n2)OC(=O)C[C@H](O)C(C)(C)C(=O)[C@H](C)[C@@H](O)[C@@H](C)CCC1` [Epothilone D, epothilone D], for which the “histopathological abnormalities in multiple tissues” value is “no histopathological abnormalities were observed”.

The values above are taken from patent US8673949B2 (Bristol-Myers Squibb Company, priority 2008, dated 2014).
